Protein sequences, listed by entry. Tags and fused reporters are not part of them.
UniProt P00533, whole entry, looked up: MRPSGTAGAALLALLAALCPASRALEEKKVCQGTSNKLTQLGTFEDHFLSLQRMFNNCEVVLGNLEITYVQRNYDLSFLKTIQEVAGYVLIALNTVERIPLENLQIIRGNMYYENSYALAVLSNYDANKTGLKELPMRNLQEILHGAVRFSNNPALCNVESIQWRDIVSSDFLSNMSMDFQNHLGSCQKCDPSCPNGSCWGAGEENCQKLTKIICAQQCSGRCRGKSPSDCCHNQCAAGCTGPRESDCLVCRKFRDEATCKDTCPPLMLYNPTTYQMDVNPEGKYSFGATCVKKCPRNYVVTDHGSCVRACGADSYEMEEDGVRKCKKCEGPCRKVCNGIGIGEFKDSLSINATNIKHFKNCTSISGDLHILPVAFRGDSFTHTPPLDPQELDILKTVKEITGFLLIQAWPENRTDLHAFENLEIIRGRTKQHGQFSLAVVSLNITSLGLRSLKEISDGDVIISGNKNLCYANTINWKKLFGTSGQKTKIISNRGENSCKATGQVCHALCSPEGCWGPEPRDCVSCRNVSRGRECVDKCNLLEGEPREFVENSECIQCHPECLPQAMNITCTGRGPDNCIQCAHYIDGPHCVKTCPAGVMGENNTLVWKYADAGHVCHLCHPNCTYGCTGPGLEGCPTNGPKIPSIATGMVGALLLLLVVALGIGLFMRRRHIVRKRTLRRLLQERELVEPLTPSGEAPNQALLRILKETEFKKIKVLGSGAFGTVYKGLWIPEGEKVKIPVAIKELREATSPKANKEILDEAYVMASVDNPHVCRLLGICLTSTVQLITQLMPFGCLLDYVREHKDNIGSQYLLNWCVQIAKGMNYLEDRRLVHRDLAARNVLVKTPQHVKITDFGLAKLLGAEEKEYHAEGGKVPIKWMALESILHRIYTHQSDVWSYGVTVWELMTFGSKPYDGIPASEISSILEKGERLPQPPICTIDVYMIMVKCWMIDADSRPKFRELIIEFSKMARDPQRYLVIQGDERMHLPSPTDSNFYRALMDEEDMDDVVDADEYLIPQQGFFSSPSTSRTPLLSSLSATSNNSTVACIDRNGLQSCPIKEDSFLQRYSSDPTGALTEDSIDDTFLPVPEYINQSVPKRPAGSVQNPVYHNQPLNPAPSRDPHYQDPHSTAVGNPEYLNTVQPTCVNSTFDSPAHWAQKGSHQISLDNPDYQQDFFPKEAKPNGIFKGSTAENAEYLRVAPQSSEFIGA

According to patent publication EP0645379A2, “Benzoylacetylene derivatives” (priority 1993, dated 1995):

Biological target: partially purified human EGF (epidermal growth factor) receptor tyrosine kinase (Homo sapiens, UniProt P00533)
Settings: read-out: Tyrosine kinase inhibitory activity (IC50, μ); Table-2 continued; partially purified EGF receptor from A431 cells; 4) hydrochloride

Structure (SMILES): COc1ccc(C(=O)C#CC(C)(C)NC(=O)OCc2ccc[n+](C)c2)cc1OC [compound 650]
- IC50: 430 nM
